# Apparent affinities of Ab-14 variants for a coronavirus HR2 peptide

From the AlphaSeq antibody data of Li et al. 2023 (doi:10.1038/s41467-023-39022-2), copy in the FLAb collection.

Binding partner: SARS-CoV-2 spike HR2 peptide, sequence PDVDLGDISGINAS.

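The starting antibody came from a phage panning campaign against this peptide. These sequences belong to a second round, designed from the earlier measurements on random variants of the parent. Their group label is 14H_En_Gibbs (En: ensemble of fine-tuned language models; Gibbs: Gibbs sampling). AlphaSeq pools MATa yeast showing the antibodies with MATalpha yeast showing the peptide. Mating (16 h, 30 °C) was followed by selection of diploids and sequencing of their barcodes. Each replicate has its own calibration line, from reference interactions of the BCL2 family. Mating was done six times.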

Ab-14 is the parent antibody, in scFv form: VH, then three GGGGS repeats, then VL. The light chain is unchanged in all variants.
VH: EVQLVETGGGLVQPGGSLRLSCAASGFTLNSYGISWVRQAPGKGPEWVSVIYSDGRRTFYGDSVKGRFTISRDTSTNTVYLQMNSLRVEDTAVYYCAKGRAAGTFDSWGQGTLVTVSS
VL: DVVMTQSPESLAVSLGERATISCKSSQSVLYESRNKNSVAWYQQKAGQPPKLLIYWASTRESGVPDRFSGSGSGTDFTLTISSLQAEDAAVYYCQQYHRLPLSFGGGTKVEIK

The parent's heavy chain CDRs are GFTLNSYGIS, VIYSDGRRTFYGDSVK, GRAAGTFDS; each variant's own CDRs replace them letter for letter. The read-out is the apparent dissociation constant on a log10 scale (nM): the lower, the stronger. Replicates are averaged; those with no signal do not enter the mean. An entry "ND" has no value in the source: the pair was not observed among the diploids in that replicate. This suggests poor binding but is not conclusive. In the paper, a design with two or fewer of six values counts as a poor binder. Nonspecific signal, from three strains lacking the peptide, appeared in 1% of pairings of all heavy chain designs, centred on 2.08 (5% of these signals below 0.84); values are not corrected for it. Also given: how often the same scFv was detected with the empty control strains, with their mean in brackets. The parent sequence was in this pool as ten entries: three were never detected, three once, and four in most replicates, with averages from 0.34 to 2.37. Values of this round are not directly comparable with the first-round values of the same sequences.

| CDR-H1 | CDR-H2 | CDR-H3 | log10 Kd, replicates | log10 Kd (nM), mean | signal with controls |
|---|---|---|---|---|---|
| GGELDEYGIS | VIYADGIRRQYVDNVK | GETADAFDM | ND ND ND ND ND ND | ND | 0/18 |
| GFDLSEYGIS | VIYADGERANYVSNFK | GVLAGTFVL | ND ND ND 1.15 ND ND | 1.15 | 0/18 |
| GFDLNEYGIS | VIYADGMRTGYQQQVK | GYHSGGLNQ | ND ND ND ND ND ND | ND | 0/18 |
| GFNINEYGIS | VIYADGQRLSYDDNVK | GEITGTFLS | 0.72 -0.35 -0.02 -0.06 0.43 1.47 | 0.36 | 0/18 |
| GKDLDEYGIS | VIYADGKRTHYVENVK | GQFGGNLLD | ND ND ND ND ND ND | ND | 0/18 |
| GFQLDEVGIS | VIYADGMRTAYADSFK | GNKSTIIGI | ND ND ND ND ND ND | ND | 0/18 |
| GFDLNEYGIS | VIYADGIRTAYVDKVK | SRDGIVILF | ND ND ND ND ND ND | ND | 0/18 |
| GFGLDEYGIS | VIYADGKRYAYKNSVK | GGVGVNGLH | 1.03 1.44 1.76 -0.13 -0.26 -0.26 | 0.60 | 0/18 |
| GFDIDEYGIS | VIYADGSRAVYTESVK | GHNGNRLVG | ND ND ND ND ND ND | ND | 0/18 |
| GFPLDEYGIS | VIYADGVRKAYANSVK | GQQTFFIRT | ND ND ND ND ND ND | ND | 0/18 |
| GKLLDEYGIS | VIYADGKRMVYAPSVK | GNLTDTLLV | ND ND ND ND ND ND | ND | 1/18 (2.63) |
| GFGLSEYGIS | VIYADGMRTSYDDSIK | GALAGTFDE | ND ND ND ND 1.14 0.25 | 0.70 | 0/18 |
| GFSLDEMGIS | VIYADGKRMFYQDNVK | GVNSVTFNV | ND ND ND ND ND ND | ND | 0/18 |
| GFDLEEYGIS | VIYADGLRTYYDDNFK | GWNSGTIFV | ND ND ND ND ND ND | ND | 0/18 |
| GQDLNEYGIS | VIYADGLRTAYTNNVK | GNQSDFDSG | ND ND ND ND ND ND | ND | 0/18 |
| GFNLNEYGIS | VIYADGMRTFYIDKAK | GNAGIVFEV | 0.03 -0.21 -0.30 0.41 -0.13 0.81 | 0.10 | 0/18 |
| GKSLDEYGIS | VIYADGLRMVYANSVK | GQLTDTLLL | ND ND ND ND ND ND | ND | 0/18 |
| GFSINEYGIS | VIYADGNRSAYIDAVK | GNWGSSFLE | ND ND ND ND ND ND | ND | 1/18 (2.12) |
| GFNIDEYGIS | VIYADGQRLSYDDNVK | GGITGTFDN | ND ND ND ND ND ND | ND | 0/18 |
| GFVFDEYGIS | VIYADGIRQFYQDKVK | GEVTGGFDI | ND ND ND ND ND ND | ND | 0/18 |
| GMDLDEYGIS | VIYADGQRRQYAANVK | GVNIDGFDL | ND ND ND ND ND ND | ND | 0/18 |
| GFDINEYGIS | VIYADGNRTMYQDQVK | GGNGGSFVL | ND ND 2.36 ND ND ND | 2.36 | 0/18 |
| GFDLNEYGIS | VIYADGMRTFYADNAK | GNAGIFAEV | ND ND ND ND ND ND | ND | 0/18 |
| GFDLNEMGIS | VIYADGMRTKFTESVK | GTGDGSFLL | ND ND ND ND ND ND | ND | 0/18 |
| GFELDEMGIS | VIYADGKRAAYSDNVK | GDNRGIFHM | ND ND ND ND ND 2.03 | 2.03 | 1/18 (2.17) |
| GQNLDEYGIS | VIYADGMRKWYADDVK | GISSGFVII | ND ND ND ND ND ND | ND | 0/18 |
| GYDLVEYGIS | VIYADGQRTVYSDDVK | GNHGGTIDT | ND ND ND ND ND ND | ND | 0/18 |
| GFNLDEYGIS | VIYADGVRTKYIDNVK | GVLQDLQMG | ND ND ND ND ND ND | ND | 0/18 |
| GFKLEEYGIS | VIYADGKRVAYQDAVK | GKHAGMFMV | ND ND ND ND ND ND | ND | 0/18 |
| GFDLNEYGVS | VIYADGQRRAYAANFK | GVNIGGLDA | ND ND ND ND ND ND | ND | 0/18 |
| GFQLDEYGIS | VIYADGQRTAYKQKVK | GSDTGLGWF | ND ND 1.19 ND ND ND | 1.19 | 0/18 |
| GYDIEEYGIS | VIYADGKRNAYANSFK | GKWAGTFDD | ND ND ND 2.23 1.14 ND | 1.68 | 0/18 |
| GFDLNEYGIS | VIYADGIRQAYEDSVK | GRNIIGFLF | ND ND ND ND ND ND | ND | 0/18 |
| GFQLNEYGIS | VIYADGRRTAYADSVK | GAYDLVAVL | ND ND ND ND ND ND | ND | 0/18 |